Apparent affinities of Ab-14 variants for a coronavirus HR2 peptide

Source: Li et al. 2023 (doi:10.1038/s41467-023-39022-2), MIT Lincoln Laboratory and A-Alpha Bio; data file from the FLAb repository.

The target is the same throughout: PDVDLGDISGINAS, from the HR2 region of SARS-CoV-2 spike.

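The parent was found by panning a naive human phage display library on the peptide. These sequences belong to a second round, designed from the earlier measurements on random variants of the parent. Several design methods are mixed in this list. In AlphaSeq, yeast of one mating type display the scFv and yeast of the other type display the target. The frequency of each diploid, read from paired DNA barcodes, reflects how well the two displayed proteins bind. The ratio of observed to expected reads was calibrated, replicate by replicate, on BCL2-family standards whose Kd was known from biolayer interferometry. Mating was done six times.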

Each scFv is VH, the linker GGGGSGGGGSGGGGS, VL, as in the parent Ab-14, and differs from it in the CDRs of the heavy chain only.
VH: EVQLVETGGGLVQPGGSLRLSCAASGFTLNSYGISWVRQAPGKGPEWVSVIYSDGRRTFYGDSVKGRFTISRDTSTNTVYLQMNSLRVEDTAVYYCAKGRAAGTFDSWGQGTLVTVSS
VL: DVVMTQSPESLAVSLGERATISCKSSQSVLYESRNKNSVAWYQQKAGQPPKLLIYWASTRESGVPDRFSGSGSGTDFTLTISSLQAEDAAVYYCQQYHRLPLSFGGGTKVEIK

Each variant is given by its three heavy chain CDRs, as the data file delimits them; those of the parent are GFTLNSYGIS, VIYSDGRRTFYGDSVK, GRAAGTFDS.
Variants here have more than six changes.
The Kd shown is the geometric mean over detected replicates; a lower Kd is a better binder.
A pair that was not seen in any replicate is written "not detected"; this usually means weak binding, but a binder can also be missed.
Values of this round are not directly comparable with the first-round values of the same sequences.
The authors averaged sequences with at least three values out of six and counted those with two or fewer as poor binders.
Three control strains display no target. For all heavy chain designs, 1% of the pairings with them gave a signal, with a median of 120 nM and one signal in twenty below 7.0 nM, so weak values seen in few replicates may be background. Also given: how often the same scFv was detected with the empty control strains.

CDR-H1	CDR-H2	CDR-H3	apparent Kd	seen in	empty controls
GFDLAEYGIS	VIYADGMRVAYNQNVK	GTGGGSFDF	not detected	0 of 6	1 of 18
GFDLNEYGIS	VIYADGKRKFYADSVK	GNTAGTFDV	350 pM	6 of 6	0 of 18
GFDLNEYGIS	VIYADGVRTFYTDSVK	GEVAGTFDQ	560 pM	6 of 6	0 of 18
GKDLNEQGIS	VIYADGTRTAYANTVK	GEIAGAFPI	not detected	0 of 6	0 of 18
GFDLNEYGIS	VIYADGKRTAYADDVK	GNNAGTFDL	470 pM	6 of 6	0 of 18
GFDLNEYGIS	VIYADGRRTFYDDSVK	GQIAGTFDQ	510 pM	6 of 6	0 of 18
GFDLNEYGIS	VIYADGKRTYYADDVK	GNVAGTFDI	1.2 nM	6 of 6	0 of 18
GFDLNEYGIS	VIYADGKRTFYSDSVK	GNNGGTFDS	230 pM	6 of 6	0 of 18
GFDLDEYGIS	VIYADGRRTFYADSVK	GTLAGTFDA	220 pM	6 of 6	0 of 18
GFDLNEYGIS	VIYADGRRTFYADSVK	GSEAGTFNL	120 pM	6 of 6	0 of 18
GFDLDEYGIS	VIYADGQRTAYADSVK	GNQAGTFDV	not detected	0 of 6	0 of 18
DFNLNEYGIS	VIYADGQRASYDDKVK	GQIGGTFND	not detected	0 of 6	2 of 18
GFNLDEYGIS	VIYADGRRTAYADSVK	GNVAGTFDL	360 pM	6 of 6	0 of 18
GFDLNEYGIS	VIYADGRRTFYADSVK	GEHAGSFDI	1.3 nM	6 of 6	0 of 18
GFDLEEYGIS	VIYADGRRTAYADSVK	GNNAGTFDV	790 pM	6 of 6	0 of 18
GYDIQDYGIS	VIYADGVRKVYHDSVK	GQLAGFFIT	not detected	0 of 6	0 of 18
GFDLDEYGIS	VIYADGKRTAYADNVK	GEVAGTFDQ	320 pM	6 of 6	0 of 18
GFNINEYGIS	VIYADGLRVAYEDSVK	GNASIFGVD	not detected	0 of 6	0 of 18
GFDLNEYGIS	VIYADGRRSAYADSVK	GQNAGTFDV	2.4 nM	6 of 6	0 of 18
GFDLNEYGIS	VIYADGRRTAYADDVK	GEVAGTFDQ	10 nM	6 of 6	0 of 18
GFDLDEYGIS	VIYADGRRTAYTDSVK	GENAGTFDI	not detected	0 of 6	0 of 18
GFNLDEYGIS	VIYADGRRTFYADSVK	GGAAGTFDV	400 pM	6 of 6	1 of 18
GFDLNEYGIS	VIYADGRRTAYIDSVK	GKNAGTFDV	410 pM	6 of 6	0 of 18
GFDLAEYGVS	VIYADGKRTAYADHVK	GVNLGFFDL	46 µM	1 of 6	1 of 18
GFNLNEYGIS	VIYADGNRNAYADSFK	GLHANFFII	not detected	0 of 6	0 of 18
GFDLNEYGIS	VIYADGKRTAYADSVK	GNTAGTFDT	740 pM	6 of 6	1 of 18
GFQLEDYGIS	VIYADGRRTAYAADVK	GQNNVVAGG	not detected	0 of 6	0 of 18
GFDLNEYGIS	VIYADGRRTFYTDNVK	GENAGTFDV	350 pM	6 of 6	1 of 18
GFDLNEYGIS	VIYADGKRTKYTDNVK	GSLTGTAVT	not detected	0 of 6	0 of 18
GFNLDEYGIS	VIYADGMRTFYADSVK	GEVAGTFDV	520 pM	6 of 6	0 of 18
GFDLNEYGIS	VIYADGRRTYYADSVK	GNQAGTFDV	440 pM	6 of 6	0 of 18
GFDLNEYGIS	VIYADGQRTYYADSVK	GNQAGTFDV	360 pM	6 of 6	1 of 18
GFDLNEYGIS	VIYADGKRTFYSDSVK	GQTAGTFDE	570 pM	6 of 6	2 of 18
GFDLEKYGIS	VIYADGYRSAYASNVK	GGHAGTFHF	4.5 nM	6 of 6	0 of 18
GFDLNEYGIS	VIYADGSRTAYSDSVK	GNVAGTFDV	670 pM	6 of 6	0 of 18
GFDLEDYGIS	VIYADGQRTAYADSVK	GNVAGTFDQ	1.1 nM	6 of 6	0 of 18
GFDLGEYGIS	VIYADGVRTSYAQKVK	GKNGAISSV	not detected	0 of 6	0 of 18
GFDLNEYGIS	VIYADGRRTFYTDSVK	GANAGTFDF	330 pM	6 of 6	0 of 18
GFDLDEYGIS	VIYADGVRTAYTDSVK	GNVAGTFDT	200 pM	6 of 6	0 of 18
GFDLNEYGIS	VIYADGVRTYYSDSVK	GNVAGTFDV	260 pM	6 of 6	0 of 18
GFDLNEYGIS	VIYADGRRSFYADSVK	GNNAGTFDV	300 pM	6 of 6	2 of 18
GFDLDEYGIS	VIYADGMRTAYSDSVK	GTNAGTFDI	1.5 nM	6 of 6	1 of 18
GDSLEEYGIS	VIYADGKRTAYKNKAK	GKVAGYFDV	not detected	0 of 6	0 of 18
GFDLNEYGIS	VIYADGVRTAYSDSVK	GNQAGTFDT	260 pM	6 of 6	1 of 18
GFDLNEYGIS	VIYADGRRTAYLDSVK	GETAGTFDS	1.3 nM	6 of 6	0 of 18

Top 7 of the variants detected in all replicates, tightest first:

{"CDR-H1": "GFDLNEYGIS", "CDR-H2": "VIYADGRRTFYADSVK", "CDR-H3": "GSEAGTFNL", "apparent Kd": "120 pM", "seen in": "6 of 6", "empty controls": "0 of 18"}
{"CDR-H1": "GFDLDEYGIS", "CDR-H2": "VIYADGVRTAYTDSVK", "CDR-H3": "GNVAGTFDT", "apparent Kd": "200 pM", "seen in": "6 of 6", "empty controls": "0 of 18"}
{"CDR-H1": "GFDLDEYGIS", "CDR-H2": "VIYADGRRTFYADSVK", "CDR-H3": "GTLAGTFDA", "apparent Kd": "220 pM", "seen in": "6 of 6", "empty controls": "0 of 18"}
{"CDR-H1": "GFDLNEYGIS", "CDR-H2": "VIYADGKRTFYSDSVK", "CDR-H3": "GNNGGTFDS", "apparent Kd": "230 pM", "seen in": "6 of 6", "empty controls": "0 of 18"}
{"CDR-H1": "GFDLNEYGIS", "CDR-H2": "VIYADGVRTAYSDSVK", "CDR-H3": "GNQAGTFDT", "apparent Kd": "260 pM", "seen in": "6 of 6", "empty controls": "1 of 18"}
{"CDR-H1": "GFDLNEYGIS", "CDR-H2": "VIYADGVRTYYSDSVK", "CDR-H3": "GNVAGTFDV", "apparent Kd": "260 pM", "seen in": "6 of 6", "empty controls": "0 of 18"}
{"CDR-H1": "GFDLNEYGIS", "CDR-H2": "VIYADGRRSFYADSVK", "CDR-H3": "GNNAGTFDV", "apparent Kd": "300 pM", "seen in": "6 of 6", "empty controls": "2 of 18"}